PubChem BioAssay AID743266 (National Center for Advancing Translational Sciences (NCATS), 2014)
The list shows a part of the results, in another mix than the full data. The source made the active and inactive calls. Calls come from the whole dose curve; as a rule, active = well fitted activation curve with a large enough effect; inconclusive = small, poorly fitted or top-dose-only effect, or another doubt; inactive = no such curve, though single readings can be large or run the other way.

By UniProt entry, the sequences of proteins in these tests, tags left out.
UniProt Q03431, whole entry: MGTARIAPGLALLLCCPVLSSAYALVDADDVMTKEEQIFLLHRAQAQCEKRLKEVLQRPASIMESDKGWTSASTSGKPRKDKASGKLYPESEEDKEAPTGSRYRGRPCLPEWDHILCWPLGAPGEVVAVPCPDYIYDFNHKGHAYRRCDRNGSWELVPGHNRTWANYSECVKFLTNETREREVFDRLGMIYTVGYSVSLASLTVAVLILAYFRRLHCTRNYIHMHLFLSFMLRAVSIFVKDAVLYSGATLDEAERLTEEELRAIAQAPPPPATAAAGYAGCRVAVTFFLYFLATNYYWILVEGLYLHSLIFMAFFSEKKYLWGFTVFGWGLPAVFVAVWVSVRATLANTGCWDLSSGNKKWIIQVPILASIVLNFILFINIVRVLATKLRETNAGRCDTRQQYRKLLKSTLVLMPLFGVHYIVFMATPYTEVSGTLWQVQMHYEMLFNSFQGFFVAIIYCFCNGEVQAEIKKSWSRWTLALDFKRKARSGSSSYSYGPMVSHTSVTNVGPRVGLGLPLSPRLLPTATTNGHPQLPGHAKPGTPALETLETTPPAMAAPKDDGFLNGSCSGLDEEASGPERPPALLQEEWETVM

Target: Parathyroid hormone/parathyroid hormone-related peptide receptor (Homo sapiens) (UniProt Q03431)
Assay: qHTS for PTHR1 Agonists: Primary Screen; note: nearly all actives have a fitted effect of over 55% in size
Details: HEK293 GP2 PTHR1 cells, GloSensor cAMP luminescence, 1 h; activation: at 115 µM (top of the series) unless noted

Structure (SMILES) | outcome | activation
COc1ccccc1OP(C)(=O)Nc1c(C)cccc1C (configuration not stated) | inactive [at 57.5 µM] | 
CN1CCCCC1COC(=O)C1(O)c2ccccc2CCc2ccccc21 (configuration not stated) |  | inactive: 12.7%
CP(=O)(Nc1ccc(SC(F)(F)F)cc1)Oc1ccccc1 (configuration not stated) |  | inactive: -35.6%
CCCOc1ccc(NP(C)(=O)Oc2ccc(Cl)cc2)cc1 (configuration not stated) |  | inactive: -14.7%
COc1ccc(-c2ccccn2)cc1.O=[N+]([O-])c1cc([N+](=O)[O-])c(O)c([N+](=O)[O-])c1 |  | inactive: -21.9%
O=[N+]([O-])c1cc([N+](=O)[O-])c(-n2nnc3ccccc32)c([N+](=O)[O-])c1 |  | inactive: 13%
CN(Cc1cccnc1)C(=O)COc1ccc(Cl)c(Cl)c1.O=[N+]([O-])c1cc([N+](=O)[O-])c(O)c([N+](=O)[O-])c1 |  | inactive: -1.62%
O=[N+]([O-])c1cc([N+](=O)[O-])c(-c2cnn(-c3ccccc3)c2)c([N+](=O)[O-])c1 |  | inactive: -23.5%
Cc1nc2ccc3ccccc3c2s1.O=[N+]([O-])c1cc([N+](=O)[O-])c(O)c([N+](=O)[O-])c1 |  | inactive: -8.74% [at 57.5 µM]
COc1ccccc1OP(C)(=O)Nc1cccc(Br)c1 (configuration not stated) |  | inactive: -25.8%
Cc1cc(C)cc(OP(C)(=O)Nc2ccc(C)cc2C)c1 (configuration not stated) | inactive [at 57.5 µM] | 
CCOC(=O)c1ccc(NP(C)(=O)Oc2cc(C)cc(C)c2)cc1 (configuration not stated) |  | inactive
CP(=O)(Nc1cccc(Br)c1)Oc1ccccc1 (configuration not stated) |  | inactive
Cc1cc(C)cc(OP(C)(=O)Nc2ccccn2)c1 (configuration not stated) | inactive [at 57.5 µM] | 
Cc1ccc(C)c(NP(C)(=O)Oc2ccccc2)c1 (configuration not stated) |  | inactive: -22.6%
CC1=NCCc2c1[nH]c1ccccc21.O=[N+]([O-])c1cc([N+](=O)[O-])c(O)c([N+](=O)[O-])c1 |  | inactive: -13.1%
COc1ccc(OP(C)(=O)Nc2ccc(SC(F)(F)F)cc2)cc1 (configuration not stated) |  | inactive: -4.37%
CCOC(=O)c1ccc(NP(C)(=O)Oc2ccc(F)cc2)cc1 (configuration not stated) |  | inactive: -26.4%
CCN(CC)CCCOC(=O)C(O)(c1ccccc1)C1CCCCC1 (configuration not stated) | inactive [at 57.5 µM] | 
Cc1c([N+](=O)[O-])cc([N+](=O)[O-])c(Br)c1[N+](=O)[O-] |  | inactive: -26.2%
CCCCCOc1ccc(NP(C)(=O)Oc2ccc(Cl)cc2Cl)cc1 (configuration not stated) |  | inactive: -3.44%

Structure (SMILES) | outcome | activation
CP(=O)(Nc1ccccc1)Oc1ccc(F)cc1 (configuration not stated) |  | inactive: -0.495% [at 57.5 µM]
CC(C)c1ccc(OP(C)(=O)Nc2ccc(SC(F)(F)F)cc2)cc1 (configuration not stated) |  | inactive: -20.5%
CP(=O)(Nc1ccccc1F)Oc1ccccc1 (configuration not stated) |  | inactive: -7.83% [at 57.5 µM]
O=C(OCCN1CCN(CCOCc2ccccc2)CC1)C(O)(c1ccccc1)c1ccccc1 |  | inactive: -24.8%
CP(=O)(Nc1ccc(SC(F)(F)F)cc1)Oc1ccc(F)cc1 (configuration not stated) |  | inactive
CCOP(C)(=S)SCC(=O)NC(C)(CC)C(=O)O (configuration not stated) |  | inactive: -17.4%
O=[N+]([O-])c1cc([N+](=O)[O-])c(C(F)(F)F)c([N+](=O)[O-])c1O |  | inactive: -9.85%
Cc1ccccc1NP(C)(=O)Nc1ccccc1C |  | inactive
COc1ccc(OP(C)(=O)Nc2cccc(Br)c2)cc1 (configuration not stated) |  | inactive
COc1ccc(NP(C)(=O)Oc2ccccc2OC)cc1 (configuration not stated) |  | inactive: -38.6%
CN(C)CCOC(=O)C(O)(c1ccccc1)C1CCCCC1 (configuration not stated) |  | inactive: -6.04% [at 57.5 µM]
Cc1cc(-c2cccc3ccccc23)c(C)cn1.O=[N+]([O-])c1cc([N+](=O)[O-])c(O)c([N+](=O)[O-])c1 |  | inactive: -4.02%
O=[N+]([O-])c1ccc(OP2(=O)COCCO2)cc1 (configuration not stated) |  | inactive: -9.21%
Cc1c(C(c2ccc3c(c2)OCO3)c2c(C)n(C)n(-c3ccccc3)c2=O)c(=O)n(-c2ccccc2)n1C.O=[N+]([O-])c1cc([N+](=O)[O-])c(O)c([N+](=O)[O-])c1 |  | inactive: 2.16%
Nc1ccc2c(ccc3cccnc32)n1.O=[N+]([O-])c1cc([N+](=O)[O-])c(O)c([N+](=O)[O-])c1 |  | inactive: -9.94%
CP(=O)(OC12CC3CC(CC(C3)C1)C2)OC12CC3CC(CC(C3)C1)C2 |  | inactive: -23.6%
CCOC(=O)c1ccc(NP(C)(=O)Oc2ccc(Cl)cc2)cc1 (configuration not stated) |  | inactive
COc1ccc(OP(C)(=O)Nc2ccc(Br)cc2)cc1 (configuration not stated) |  | inactive: -17.3%
CCN(CC)CC(O)COC(=O)C(O)(c1ccccc1)C1CCCCC1 (configuration not stated) |  | inactive: -5.43% [at 57.5 µM]
CCc1ccc(OP(C)(=O)Nc2cccnc2)cc1 (configuration not stated) |  | inactive: -7.56%
CP(=O)(Oc1ccccc1)N1CCOC1=O (configuration not stated) |  | inactive: -1.28% [at 57.5 µM]

Structure (SMILES) | outcome | activation
O=C(OCCCN1CCCC1)C(O)(c1ccccc1)C1CCCCC1 (configuration not stated) |  | inactive: -21.2%
COc1ccccc1OP(C)(=O)Nc1c(C)n(C)n(-c2ccccc2)c1=O (configuration not stated) | inactive [at 57.5 µM] | 
CP(=O)(Nc1ccc(Cl)cc1)Oc1ccc(F)cc1 (configuration not stated) | inactive [at 57.5 µM] | 
CC(C)(C)c1ccc(OP(C)(=O)O)cc1 |  | inactive: -14% [at 57.5 µM]
COc1ccccc1OP(C)(=O)Nc1ccccc1Br (configuration not stated) |  | inactive: -31%
CN(C)C(=O)c1c([N+](=O)[O-])cc([N+](=O)[O-])cc1[N+](=O)[O-] |  | inactive: -24.4%
COc1ccccc1OP(C)(=O)Nc1ccc(Br)cc1 (configuration not stated) |  | inactive: -2.92%
CN(C)CCOC(=O)C(O)(c1ccccc1)C1CCCC1 (configuration not stated) |  | inactive: -15.7% [at 57.5 µM]
COc1ccc(OP(C)(=O)Nc2ccccn2)cc1 (configuration not stated) |  | inactive: -8.08%
O=[N+]([O-])c1cc([N+](=O)[O-])c(Nc2ccccn2)c([N+](=O)[O-])c1 |  | inactive: -23.1%
Cc1c(NP(C)(=O)Oc2ccc(C(C)C)cc2)c(=O)n(-c2ccccc2)n1C (configuration not stated) |  | inactive
CCc1ccc(OP(C)(=O)O)cc1 | inactive [at 57.5 µM] | 
COc1ccccc1OP(C)(=O)Nc1ccc(C)cc1C (configuration not stated) |  | inactive: -5.07% [at 57.5 µM]
CP(=O)(Nc1ccccn1)Oc1ccccc1 (configuration not stated) | inactive [at 57.5 µM] | 
Cc1cc(C)cc(OP(C)(=O)Nc2cccc(C(F)(F)F)c2)c1 (configuration not stated) |  | inactive
COc1ccc(OP(C)(=O)Nc2ccccc2Br)cc1 (configuration not stated) |  | inactive
COc1ccccc1OP(C)(=O)Nc1ccc(C)c(C)c1 (configuration not stated) |  | inactive: -13.7% [at 57.5 µM]
CP(=O)(OCCOc1ccccc1)OCCOc1ccccc1 |  | inactive: -93.6%
CP(=O)(Nc1ccc(Cl)cc1Cl)Oc1ccccc1 (configuration not stated) |  | inactive: 14.8%
CCCCCCCCCCCCCCCC1C[N+](C)(C)CCOP(C)(=O)O1 (configuration not stated) |  | inactive: -2.87%
